Assay outcomes as filed in PubChem.
A549 viability – A549 cytotoxicity, counter-screen for Nrf2 inhibitors. A549 ARE-Fluc cells, CellTiter-Fluor viability, 18-24 h. Potency, µM (doses to about 46 µM), inactives show top-dose activity change, negative = cytotoxicity, most hits filed as inhibitors. 390,000 compounds, 0.16% hits; further: potency means the concentration at half of the fitted maximal effect; on the % scale 0 is the no-effect control and ±100 the full control effect
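A549 ARE_Fluc cells in 5% FBS OPTI-MEM were exposed to compounds in concentration-response for 18-24 h at 37 deg C. Viability was read by CellTiter-Fluor fluorescence (Ex 405/Em 525) after 30 min, before the luciferase read.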
miR-21 FLuc – raises the signal of a miR-21 reporter | Potency, µM (doses to about 38.3 µM), for inactives: top-dose reporter change, positive = more light | HeLa miR-21 FLuc reporter, luciferase, 48 h | AID 2288 | 340,000 tested, under 10 active; active = well fitted rising curve with a large enough effect; inconclusive = small, poorly fitted or top-dose-only effect; inactive = no such curve, though single readings can be large or run the other way;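 also: % of control where 0% means no effect; miR-21 action dims this reporter so a rising signal means less miR-21 action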
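Using DMEM plus 10% FBS, HeLa miR-21-FLuc cells are incubated with test compounds (final up to about 40uM) for 48 hours; firefly luciferase signal is then imaged following reagent-mediated lysis.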
Nrf2 block – Nrf2 pathway inhibition; A549 ARE-Fluc reporter, luciferase luminescence, 18-24 h; 360,000 compounds, 2.1% hits; AID 504444; Potency, µM (titrated, usually from 46 µM), for inactives: at the top dose activity change, negative = inhibition, usual class: inhibitors; further: potency means the concentration at half of the fitted maximal effect; on the % scale 0 is the no-effect control and ±100 the full control effect; nearly all actives have a fitted effect of over 60% in size
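Nrf2 function is reported as luminescence of an ARE-controlled luciferase in A549 cells. Compounds were tested at several concentrations, and a CellTiter-Fluor read on the same wells flagged cytotoxicity.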
ClpP mod – qHTS Assay for Activators of ClpP | purified B. subtilis ClpP, FRET peptide cleavage, 20 min | Potency, µM (series often up to 57.5 µM), without a hit: at the highest dose activity change, negative = active | 340,000 compounds, 1.9% hits | AID 651965, 2013; active means well fitted falling curve with a large enough effect; inconclusive means small, poorly fitted or top-dose-only effect; inactive means no such curve, though single readings can be large or run the other way; further: potency means the concentration at half of the fitted maximal effect; the source files actives as falling curves though it sought activators and does not explain the sign; nearly all actives have a fitted effect of over 65% in size
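ClpP 10 microg/mL final, pH 8 Tris/KCl buffer with BSA, glycerol, Tween-20; compound pinned in; FRET-FV substrate; RT 20 min; Ex320/Em430; ΔFRET vs ADEP 5.8 microM, DMSO, no enzyme.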
p53 reactivation – restores transcriptional activity of mutant p53; Potency, µM (titrated, usually from 92.2 µM), for the others: top-dose activity change, positive = activation, actives largely listed as activators; H1299 p53-A138V BP100-luciferase reporter, luminescence, 24 h; 320,000 compounds, 0.063% hits; further: potency means the concentration at half of the fitted maximal effect; % of control where 0% means no effect; nearly all actives have a fitted effect of over 45% in size
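H1299 (p53-null), stable ts p53-A138V + BP100-Luc; 1000 cells/well, Opti-MEM/10% FBS; cpd 4 pt, 1:5; 24 h, 37 deg C, 5% CO2; detection reagent 10 min RT; luminescence.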
Nrf2 ARE act – activates Nrf2 signaling; AREc32 ARE-luciferase reporter (MCF7-derived line), luminescence, 24 h; Potency, µM (top dose mostly 46.1 µM), for the others: at the highest dose activation, usual class: activators; 410,000 compounds, 0.31% hits; AID 624171; further: potency means the concentration at half of the fitted maximal effect; % of control where 0% means no effect; nearly all actives have a fitted effect of over 65% in size
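AREc32_Fluc, 1000 cells/well, OPTI-MEM + 5% FBS, o/n 37 deg C 5% CO2; 23 nL cpd by pin tool, 24 hr; Steady-Glo 30 min RT, luminescence.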
* = called active by the depositor; ? = inconclusive; / = no result given; [ ] = remark or other dose. Shown are actives, neighbours in structure and some others; about 3.7% of the full set was active somewhere. Unless noted, the call rests on the fitted dose curve; in most records, active means well fitted curve in the direction sought with a large enough effect; inconclusive means small, poorly fitted or top-dose-only effect, or another doubt; inactive means no such curve, though single readings can be large; an effect the other way counts as inactive or inconclusive.

The first three entries (preview)
1. COC(=O)Cn1c(=NC(=O)c2ccc(OC)cc2)sc2cc(OC)ccc21
2. COC(=O)Cn1c(=NC(=O)c2cc(OC)cc(OC)c2)sc2cc(OC)ccc21
3. COC(=O)Cn1c(=NC(=O)c2cccc(OC)c2)sc2cc(OC)ccc21

Assay by compound	1	2	3
A549 viability	1%	-1%	1%
miR-21 FLuc	-16%	-14%	-30%
Nrf2 block	7%	-15%	0%
ClpP mod	25µM*	28µM*	25µM*
p53 reactivation	-3%	-14%	9%
Nrf2 ARE act	4%	0%	3%

This part in full, from the first entry:
1. COC(=O)Cn1c(=NC(=O)c2ccc(OC)cc2)sc2cc(OC)ccc21
2. COC(=O)Cn1c(=NC(=O)c2cc(OC)cc(OC)c2)sc2cc(OC)ccc21
3. COC(=O)Cn1c(=NC(=O)c2cccc(OC)c2)sc2cc(OC)ccc21
4. COc1cc(OC)cc(C(=O)N=c2sc3ccccc3n2C)c1
5. COc1ccc2c(c1)Oc1ncn(CCN3CCOCC3)c(=N)c1C2c1ccc(OC)c(OC)c1 (stereo not given)

Assay by compound	1	2	3	4	5
A549 viability	1%	-1%	1%	-2%	1%
miR-21 FLuc	-16%	-14%	-30%	-32%	/
Nrf2 block	7%	-15%	0%	?	5%
ClpP mod	25µM*	28µM*	25µM*	4%	/
p53 reactivation	-3%	-14%	9%	9%	/
Nrf2 ARE act	4%	0%	3%	12%	/

6. CCNc1nc(C#N)nc(N2CCOCC2)n1
7. CCOc1ccccc1CNC(=O)c1cc2c(=O)n(Cc3ccco3)ccc2nc1C
8. CCc1cc[n+](C2=C([O-])c3ccccc3C(=O)/C2=N\S(=O)(=O)c2cccs2)cc1
9. Cc1ccc(NC2=C/C(=N/S(=O)(=O)c3cccs3)c3ccccc3C2=O)cc1
10. Cc1cc2c(s1)c1cnn(Cc3c(F)c(F)c(C)c(F)c3F)c(=O)c1n2C

Assay by compound	6	7	8	9	10
A549 viability	-7%	-2%	?	?	-4%
miR-21 FLuc	/	10%	?	12%	/
Nrf2 block	16µM*	6%	18µM*	?	10%
ClpP mod	-3%	4%	1%	-19%	/
p53 reactivation	/	/	-28%	-17%	/
Nrf2 ARE act	/	16%	-2%	-3%	/

11. CC[N+]1=C(C)C(C)(C)c2cc(C)ccc21
12. CCOC(=O)C1=C(C)NC(=O)NC1c1ccc([N+](=O)[O-])o1 (stereo not given)
13. CCOC(=O)C1=C(C)NC2=C(C(=O)c3ccccc32)C1c1ccc([N+](=O)[O-])o1 (stereo not given)
14. CC1=CC2=C(C=O)C(=O)C(C)(O)C(O)C2=CO1 (stereo not given)
15. Nc1nc(=S)[nH]c2n[nH]nc12

Assay by compound	11	12	13	14	15
A549 viability	-18%	-11%	-15%	/	/
miR-21 FLuc	23%	-5%	11%	/	/
Nrf2 block	10µM*	3%	1%	/	/
ClpP mod	-1%	1%	-18%	28%	-2%
p53 reactivation	-5%	-1%	6%	/	/
Nrf2 ARE act	-1%	3%	14µM*	10%	/

16. Cc1cn2c(=O)cc(COc3cccc(NC(=O)c4ccc(C(C)(C)C)cc4)c3)nc2s1
17. O=c1[nH]ncc(N2CCN(C(c3ccccc3)c3ccccc3)CC2)c1Cl
18. C=C1CCN(C(C)C(=O)OCc2ccc(C)cc2)S(=O)(=O)c2ccccc21 (stereo not given)
19. CC(NC(=O)c1ccccc1F)c1nnc(SCC(=O)N2CCN(c3ccccc3)CC2)n1C (stereo not given)
20. Cn1c(CSCc2ccc(Cl)cc2)nnc1SCC(=O)Nc1nccs1

Assay by compound	16	17	18	19	20
A549 viability	0%	1%	0%	-5%	-1%
miR-21 FLuc	1%	5%	/	-1%	-2%
Nrf2 block	-2%	-16%	11%	-18%	?
ClpP mod	28µM*	28µM*	/	25µM*	-2%
p53 reactivation	/	-19%	/	9%	-3%
Nrf2 ARE act	4%	3%	/	-1%	-1%

For convenience, 2 of the compounds above.
19. CC(NC(=O)c1ccccc1F)c1nnc(SCC(=O)N2CCN(c3ccccc3)CC2)n1C (stereo not given)
20. Cn1c(CSCc2ccc(Cl)cc2)nnc1SCC(=O)Nc1nccs1

Assay by compound	19	20
A549 viability	-5%	-1%
miR-21 FLuc	-1%	-2%
Nrf2 block	-18%	?
ClpP mod	25µM*	-2%
p53 reactivation	9%	-3%
Nrf2 ARE act	-1%	-1%

(cont.)
21. Cn1c(CSCc2ccc(F)cc2)nnc1SCC(=O)N1CCN(c2ccccc2)CC1
22. Cn1c(CSCc2ccc(F)cc2)nnc1SCC(=O)Nc1nccs1
23. CCn1c(Oc2ccc(F)cc2F)nc2c1c(=O)n(C)c(=O)n2C
24. COc1cc(OC)c(NC2=C(c3ccc(C(F)(F)F)cc3)C(=O)c3ccccc32)cc1Cl
25. O=C1Nc2ccccc2/C1=C/C(=O)c1cccs1

Assay by compound	21	22	23	24	25
A549 viability	-6%	?	-18%	-2%	-1%
miR-21 FLuc	16%	14%	22%	-3%	?
Nrf2 block	13µM*	18µM*	?	10%	-11%
ClpP mod	-2%	-5%	0%	-7%	32µM*
p53 reactivation	-16%	7%	/	/	-20%
Nrf2 ARE act	0%	2%	-2%	4%	-2%

26. COc1ccc(C(=O)/C=C2/C(=O)Nc3ccccc32)cc1
27. CCC(=O)N1CCc2cc(CNS(=O)(=O)c3ccc(Cl)s3)ccc21
28. C=CCn1c(C)cc(C(=O)COC(=O)c2ccc(N)c([N+](=O)[O-])c2)c1C
29. Cc1cc(C(=O)COC(=O)c2ccc3c(c2)OCO3)c(C)n1Cc1cccs1
30. Cc1cc(C(=O)COC(=O)c2ccccc2O)c(C)n1Cc1cccs1

Assay by compound	26	27	28	29	30
A549 viability	-2%	-9%	-11%	0%	?
miR-21 FLuc	?	0%	-87%	-16%	?
Nrf2 block	-9%	/	?	?	6.5µM*
ClpP mod	-2%	-2%	0%	0%	?
p53 reactivation	-4%	/	?	?	-10%
Nrf2 ARE act	?	5%	0%	0%	-3%

31. CCn1c(C)cc(C(=O)COC(=O)c2ccccc2[N+](=O)[O-])c1C
32. CCCn1c(CCCNC(=O)c2ccccc2OC)nc2ccccc21
33. COc1ccc(Cn2nnnc2C(C(C)C)N2CCc3ccccc32)cc1 (stereo not given)
34. O=[S+]([O-])(c1ccc2c(c1)OCCO2)N1CCN([S+](=O)([O-])c2ccc(F)cc2Br)CC1
35. O=C(Nc1nonc1-c1ccc(Cl)cc1)c1ccccc1F

Assay by compound	31	32	33	34	35
A549 viability	-1%	2%	-9%	4%	4%
miR-21 FLuc	/	1%	-8%	/	3%
Nrf2 block	0.73µM*	-2%[9.27 µM]	16µM*	-11%	15%
ClpP mod	0%	-3%	-3%	/	-1%
p53 reactivation	-15%	/	/	/	/
Nrf2 ARE act	-3%	-1%	-1%	/	14%

36. CCOC(=O)C1=C[C@@H](C(C)(C)C)N(S(=O)(=O)c2ccc(C)cc2)[C@H]1c1ccc(F)cc1
37. CN(C)S(=O)(=O)c1cc(NC(=O)c2ccc(-n3ccnc3)c([N+](=O)[O-])c2)ccc1Cl
38. CN1CCN(CC(=O)Nc2ccccc2[N+](=O)[O-])CC1
39. Cc1ccc(C(=O)Nc2ccccc2N2CCCCC2)cc1[N+](=O)[O-]
40. COc1ccccc1NC(=O)c1ccc(-n2ccnc2)c([N+](=O)[O-])c1

Assay by compound	36	37	38	39	40
A549 viability	/	-6%	9%	0%	4%
miR-21 FLuc	/	25%	-7%	-1%	-1%
Nrf2 block	/	18µM*	2%	12µM*	?
ClpP mod	1%	/	-2%	-2%	0%
p53 reactivation	/	2%	9%	6%	-5%
Nrf2 ARE act	1%	3%	0%	4%	-1%

41. CC(=O)N1CCN(c2ccc(NC(=O)c3ccc(N4CCCC4)c([N+](=O)[O-])c3)cc2Cl)CC1
42. CCCC(=O)N1CCN(c2ccc(NC(=O)c3ccc(N4CCCC4)c([N+](=O)[O-])c3)cc2Cl)CC1
43. Cc1cccc(N2CCN(CC(=O)Nc3ccccc3[N+](=O)[O-])CC2)c1C
44. Cc1ccc(C(=O)NC(=S)Nc2ccccc2N2CCCC2)cc1[N+](=O)[O-]

Assay by compound	41	42	43	44
A549 viability	-14%	-6%	-11%	6%
miR-21 FLuc	-9%	/	0%	-23%
Nrf2 block	23µM*	-11%	21µM*	-14%
ClpP mod	1%	/	-3%	-3%
p53 reactivation	-7%	/	8%	-5%
Nrf2 ARE act	0%	-1%	0%	6%
